The values that follow come from patent US20240360179A1, “STAPLED PEPTIDES AND METHODS THEREOF” (FOG PHARMACEUTICALS, INC., priority 2021, published 2024).

Amino acid sequences for entries named in this document (tags omitted).
UniProt P35222, whole entry: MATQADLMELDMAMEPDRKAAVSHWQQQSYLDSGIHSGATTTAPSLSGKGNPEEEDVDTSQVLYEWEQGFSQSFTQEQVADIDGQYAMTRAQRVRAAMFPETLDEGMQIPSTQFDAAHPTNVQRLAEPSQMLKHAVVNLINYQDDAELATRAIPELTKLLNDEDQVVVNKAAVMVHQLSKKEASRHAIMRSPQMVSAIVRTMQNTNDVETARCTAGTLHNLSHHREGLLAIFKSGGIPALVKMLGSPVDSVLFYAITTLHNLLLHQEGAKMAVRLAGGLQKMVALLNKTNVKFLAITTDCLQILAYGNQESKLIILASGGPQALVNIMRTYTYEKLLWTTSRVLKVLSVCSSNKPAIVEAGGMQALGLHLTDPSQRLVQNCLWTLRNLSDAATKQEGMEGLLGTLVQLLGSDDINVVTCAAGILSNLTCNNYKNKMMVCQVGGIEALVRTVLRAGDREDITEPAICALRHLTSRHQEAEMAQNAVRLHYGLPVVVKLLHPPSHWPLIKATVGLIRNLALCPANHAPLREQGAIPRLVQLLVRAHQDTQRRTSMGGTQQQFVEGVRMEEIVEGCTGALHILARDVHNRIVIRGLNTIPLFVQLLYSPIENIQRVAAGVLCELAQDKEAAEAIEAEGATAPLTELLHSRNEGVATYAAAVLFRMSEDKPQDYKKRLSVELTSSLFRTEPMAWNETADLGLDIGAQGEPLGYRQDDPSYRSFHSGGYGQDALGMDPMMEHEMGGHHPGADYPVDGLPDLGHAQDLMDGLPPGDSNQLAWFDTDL

Each structure is given as a SMILES string.

As usually defined, the IC50 is the concentration at which inhibition is half-maximal.

Experiment [1] addresses T1, full-length B-Catenin (Uniprot ID P35222) (Homo sapiens, UniProt P35222).
T1 construct: 10 nM full-length B-Catenin (Uniprot ID P35222)
Nature of the experiment: biochemical. Type of experiment: binding. As to conditions: beta-Catenin FP IC50 (nM), competition fluorescence polarization. In general terms: Fluorescence polarisation rises when a labelled molecule tumbles more slowly, as on binding a larger partner.

For experiment [2], the target named is beta-catenin/TCF4 interaction (Homo sapiens, UniProt P35222). Nature of the experiment: cell-based. The arrangement: host or cells: HEK293. The following applies: NanoBRET Abs IC50 (uM). A general note: Bioluminescence resonance energy transfer reports proximity on the nanometre scale.

Turning to `CC(=O)N1CCC[C@]12CC=CCCCC1(CCCC=CCCCOC(=O)N3CC[C@@]4(C3)NC(=O)[C@H](CCC(=O)N3CCC(CC3)C[C@@H](C(=O)N[C@@H](C)C(N)=O)NC(=O)[C@H](Cc3csc5ccccc35)NC(=O)[C@H](Cc3ccccc3C(F)(F)F)NC4=O)NC(=O)[C@H](Cc3ccccc3)NC(=O)[C@H](C)NC(=O)[C@H](C)NC(=O)[C@H](Cc3cccc(C(=O)O)c3)NC(=O)[C@H](CC(=O)O)NC1=O)NC(=O)[C@H](CC(C)(C)C)NC(=O)[C@H](CC(=O)O)NC2=O` (relative stereo) [I-259, Ac-PL3-Asp-Npg-B5-Asp-3COOHF-Ala-Ala-Phe-GlnR*3-PyrS2-2F3MeF-BztA-4PipA*3-Ala-NH2], the figures for the IC50 in experiment [1] and in experiment [2] were 50 to 200 nM and 3 to 10 µM, respectively.
For `CC(=O)N1CCC[C@]12CC=CCCCC1(CCCC=CCCCOC(=O)N3CC[C@@]4(C3)NC(=O)[C@H](CCCCn3cc(nn3)COC[C@@H](C(=O)N[C@@H](C)C(N)=O)NC(=O)[C@H](Cc3csc5ccccc35)NC(=O)[C@H](Cc3ccsc3)NC4=O)NC(=O)[C@H](Cc3ccccc3)NC(=O)[C@H](C)NC(=O)C(C)(C)NC(=O)[C@H](Cc3cccc(C(=O)O)c3)NC(=O)[C@H](CC(=O)O)NC1=O)NC(=O)[C@H](CC(C)(C)C)NC(=O)[C@H](CC(=O)O)NC2=O` (relative stereo) [I-262, Ac-PL3-Asp-Npg-B5-Asp-3COOHF-Aib-Ala-Phe-TriAzLys*3-PyrS2-3Thi-BztA-sCH2S*3-Ala-NH2] the same measures were less than 50 nM and 1.5 to 3 µM.
As for `CC(=O)N1CCC[C@]12CC=CCCCC1(CCCC=CCCCOC(=O)N3CC[C@@]4(C3)NC(=O)[C@H](COCc3cn(nn3)CCCC[C@@H](C(=O)N[C@@H](C)C(N)=O)NC(=O)[C@H](Cc3csc5ccccc35)NC(=O)[C@H](Cc3ccsc3)NC4=O)NC(=O)[C@H](Cc3ccccc3)NC(=O)[C@H](C)NC(=O)C(C)(C)NC(=O)[C@H](Cc3cccc(C(=O)O)c3)NC(=O)[C@H](CC(=O)O)NC1=O)NC(=O)[C@H](CC(C)(C)C)NC(=O)[C@H](CC(=O)O)NC2=O` (relative stereo) [I-263, Ac-PL3-Asp-Npg-B5-Asp-3COOHF-Aib-Ala-Phe-sCH2S*3-PyrS2-3Thi-BztA-TriAzLys*3-Ala-NH2], the IC50 in experiment [1] is less than 50 nM; in experiment [2], 3 to 10 µM.
Regarding `CC(=O)N1CCC[C@]12CC=CCCCC1(CCCC=CCCCOC(=O)N3CC[C@@]4(C3)NC(=O)[C@H](COCc3cn(nn3)CCCC[C@@H](C(=O)N[C@@H](C)C(N)=O)NC(=O)[C@H](Cc3csc5ccccc35)NC(=O)[C@H](Cc3ccsc3)NC4=O)NC(=O)[C@H](Cc3ccccc3)NC(=O)[C@H](C)NC(=O)[C@H](C)NC(=O)[C@H](Cc3cccc(C(=O)O)c3)NC(=O)[C@H](CC(=O)O)NC1=O)NC(=O)[C@H](CC(C)(C)C)NC(=O)[C@H](CC(=O)O)NC2=O` (relative stereo) [I-265, Ac-PL3-Asp-Npg-B5-Asp-3COOHF-Ala-Ala-Phe-sCH2S*3-PyrS2-3Thi-BztA-TriAzLys*3-Ala-NH2], the half-maximal inhibitory concentration (IC50) was less than 50 nM in experiment [1] and 3 to 10 µM in experiment [2].
The like results for `CCC[C@@H]1NC(=O)[C@]23CCN(C2)C(=O)OCCCC=CCCCC2(CCCC=CC[C@]4(CCCN4C(C)=O)C(=O)N[C@@H](CC(=O)O)C(=O)N[C@@H](CC(C)(C)C)C(=O)N2)C(=O)N[C@@H](CC(=O)O)C(=O)N[C@@H](Cc2cccc(C(=O)O)c2)C(=O)NC(C)(C)C(=O)N[C@@H](C)C(=O)N[C@@H](Cc2ccccc2)C(=O)N[C@@H](CCCCNC(=O)CC[C@@H](C(=O)N[C@@H](C)C(N)=O)NC(=O)[C@H](Cc2csc4ccccc24)NC1=O)C(=O)N3` (relative stereo) [I-270, Ac-PL3-Asp-Npg-B5-Asp-3COOHF-Aib-Ala-Phe-Lys*3-PyrS2-Nva-BztA-GlnR*3-Ala-NH2] were, in that order, less than 50 nM and 3 to 10 µM.
The like results for `CC(=O)N1CCC[C@]12CC=CCCCC1(CCCC=CCCCOC(=O)N3CC[C@@]4(C3)NC(=O)[C@H](CCCCNC(=O)CC[C@@H](C(=O)N[C@@H](C)C(N)=O)NC(=O)[C@H](Cc3csc5ccccc35)NC(=O)[C@H](CC3CCC3)NC4=O)NC(=O)[C@H](Cc3ccccc3)NC(=O)[C@H](C)NC(=O)C(C)(C)NC(=O)[C@H](Cc3cccc(C(=O)O)c3)NC(=O)[C@H](CC(=O)O)NC1=O)NC(=O)[C@H](CC(C)(C)C)NC(=O)[C@H](CC(=O)O)NC2=O` (relative stereo) [I-283, Ac-PL3-Asp-Npg-B5-Asp-3COOHF-Aib-Ala-Phe-Lys*3-PyrS2-Cba-BztA-GlnR*3-Ala-NH2] were, in that order, less than 50 nM and 3 to 10 µM.
The like results for `CC(=O)N1CCC[C@]12CC=CCCCC1(CCCC=CCCCOC(=O)N3CC[C@@]4(C3)NC(=O)[C@H](CCCCNC(=O)CC[C@@H](C(=O)N[C@@H](C)C(N)=O)NC(=O)[C@H](Cc3csc5ccccc35)NC(=O)[C@H](CC3CCCC3)NC4=O)NC(=O)[C@H](Cc3ccccc3)NC(=O)[C@H](C)NC(=O)C(C)(C)NC(=O)[C@H](Cc3cccc(C(=O)O)c3)NC(=O)[C@H](CC(=O)O)NC1=O)NC(=O)[C@H](CC(C)(C)C)NC(=O)[C@H](CC(=O)O)NC2=O` (relative stereo) [I-284, Ac-PL3-Asp-Npg-B5-Asp-3COOHF-Aib-Ala-Phe-Lys*3-PyrS2-CypA-BztA-GlnR*3-Ala-NH2] were, in that order, less than 50 nM and 3 to 10 µM.
Take `CC(=O)N1CCC[C@]12CC=CCCCC1(CCCC=CCCCOC(=O)N3CC[C@@]4(C3)NC(=O)[C@H](CCCCNC(=O)CC[C@@H](C(=O)N[C@@H](C)C(N)=O)NC(=O)[C@H](Cc3csc5ccccc35)NC(=O)[C@H](Cc3ccccc3C(F)(F)F)NC4=O)NC(=O)[C@H](Cc3ccccc3)NC(=O)[C@H](C)NC(=O)C(C)(C)NC(=O)[C@H](Cc3cccc(C(=O)O)c3)NC(=O)[C@H]([C@@H](C)C(=O)O)NC1=O)NC(=O)[C@H](CC(C)(C)C)NC(=O)[C@H](CC(=O)O)NC2=O` (relative stereo) [I-287, Ac-PL3-Asp-Npg-B5-RbMeAsp-3COOHF-Aib-Ala-Phe-Lys*3-PyrS2-2F3MeF-BztA-GlnR*3-Ala-NH2]: the IC50 in experiment [1] was 50 to 200 nM; in experiment [2] it was greater than 10 µM.
The like results for `CC(=O)N1CCC[C@]12CC=CCCCC1(CCCC=CCCCOC(=O)N3CC[C@@]4(C3)NC(=O)[C@H](CCCCNC(=O)CC[C@@H](C(=O)N[C@@H](C)C(N)=O)NC(=O)[C@H](Cc3csc5ccccc35)NC(=O)[C@H](Cc3ccccc3C(F)(F)F)NC4=O)NC(=O)[C@H](Cc3ccccc3)NC(=O)[C@H](C)NC(=O)C(C)(C)NC(=O)[C@H](Cc3cccc(C(=O)O)c3)NC(=O)[C@H](CC(=O)O)NC1=O)NC(=O)[C@H](CC(C)(C)C)NC(=O)[C@H]([C@H](C)C(=O)O)NC2=O` (relative stereo) [I-288, Ac-PL3-SbMeAsp-Npg-B5-Asp-3COOHF-Aib-Ala-Phe-Lys*3-PyrS2-2F3MeF-BztA-GlnR*3-Ala-NH2] were, in that order, less than 50 nM and 1.5 to 3 µM.
The like results for `CC(=O)N1CCC[C@]12CC=CCCCC1(CCCC=CCCCOC(=O)N3CC[C@@]4(C3)NC(=O)[C@H](CCCCNC(=O)CC[C@@H](C(=O)N[C@@H](C)C(N)=O)NC(=O)[C@H](Cc3csc5ccccc35)NC(=O)[C@H](Cc3ccccc3C(F)(F)F)NC4=O)NC(=O)[C@H](Cc3ccccc3)NC(=O)[C@H](C)NC(=O)C(C)(C)NC(=O)[C@H](Cc3cccc(C(=O)O)c3)NC(=O)[C@H](CC(=O)O)NC1=O)NC(=O)[C@H](CC(C)(C)C)NC(=O)[C@H]([C@@H](C)C(=O)O)NC2=O` (relative stereo) [I-289, Ac-PL3-RbMeAsp-Npg-B5-Asp-3COOHF-Aib-Ala-Phe-Lys*3-PyrS2-2F3MeF-BztA-GlnR*3-Ala-NH2] were, in that order, less than 50 nM and 3 to 10 µM.
For `CC(=O)N1CCC[C@]12CC=CCCCC1(CCCC=CCCCOC(=O)N3CC[C@@]4(C3)NC(=O)[C@H](CCCCNC(=O)CC[C@@H](C(=O)N[C@@H](C)C(N)=O)NC(=O)[C@H](Cc3csc5ccccc35)NC(=O)[C@H](Cc3ccccc3C(F)(F)F)NC4=O)NC(=O)[C@H](Cc3ccccc3)NC(=O)[C@H](C)NC(=O)C(C)(C)NC(=O)[C@H](Cc3cccc(C(=O)O)c3)NC(=O)[C@H](CCC(=O)O)NC1=O)NC(=O)[C@H](CC(C)(C)C)NC(=O)[C@H](CCC(=O)O)NC2=O` (relative stereo) [I-291, Ac-PL3-Glu-Npg-B5-Glu-3COOHF-Aib-Ala-Phe-Lys*3-PyrS2-2F3MeF-BztA-GlnR*3-Ala-NH2] the same measures were greater than 1000 nM and greater than 10 µM.
As to `CC(=O)N1CCC[C@]12CC=CCCCC1(CCCC=CCCCOC(=O)N3CC[C@@]4(C3)NC(=O)[C@H](CCCCNC(=O)CC[C@@H](C(=O)N[C@@H](C)C(N)=O)NC(=O)[C@H](Cc3csc5ccccc35)NC(=O)[C@H](Cc3ccco3)NC4=O)NC(=O)[C@H](Cc3ccccc3)NC(=O)[C@H](C)NC(=O)C(C)(C)NC(=O)[C@H](Cc3cccc(C(=O)O)c3)NC(=O)[C@H](CC(=O)O)NC1=O)NC(=O)[C@H](CC(C)(C)C)NC(=O)[C@H](CC(=O)O)NC2=O` (relative stereo) [I-292, Ac-PL3-Asp-Npg-B5-Asp-3COOHF-Aib-Ala-Phe-Lys*3-PyrS2-2FurA-BztA-GlnR*3-Ala-NH2], the IC50 is less than 50 nM in experiment [1] and 3 to 10 µM in experiment [2].
The like results for `CC(=O)N1CCC[C@]12CC=CCCCC1(CCCC=CCCCOC(=O)N3CC[C@@]4(C3)NC(=O)[C@H](CCCCNC(=O)CC[C@@H](C(=O)N[C@@H](C)C(N)=O)NC(=O)[C@H](Cc3csc5ccccc35)NC(=O)[C@H](Cc3ccccc3C)NC4=O)NC(=O)[C@H](Cc3ccccc3)NC(=O)[C@H](C)NC(=O)C(C)(C)NC(=O)[C@H](Cc3cccc(C(=O)O)c3)NC(=O)[C@H](CC(=O)O)NC1=O)NC(=O)[C@H](CC(C)(C)C)NC(=O)[C@H](CC(=O)O)NC2=O` (relative stereo) [I-294, Ac-PL3-Asp-Npg-B5-Asp-3COOHF-Aib-Ala-Phe-Lys*3-PyrS2-2MeF-BztA-GlnR*3-Ala-NH2] were, in that order, less than 50 nM and less than 1.5 µM.
